# According to ChEMBL document CHEMBL2434899, “Peripherally selective diphenyl purine antagonist of the CB1 receptor” (J Med Chem, 2013):
# Chains of the proteins cited; added tags and fusions are not shown.
# UniProt P21554, whole entry: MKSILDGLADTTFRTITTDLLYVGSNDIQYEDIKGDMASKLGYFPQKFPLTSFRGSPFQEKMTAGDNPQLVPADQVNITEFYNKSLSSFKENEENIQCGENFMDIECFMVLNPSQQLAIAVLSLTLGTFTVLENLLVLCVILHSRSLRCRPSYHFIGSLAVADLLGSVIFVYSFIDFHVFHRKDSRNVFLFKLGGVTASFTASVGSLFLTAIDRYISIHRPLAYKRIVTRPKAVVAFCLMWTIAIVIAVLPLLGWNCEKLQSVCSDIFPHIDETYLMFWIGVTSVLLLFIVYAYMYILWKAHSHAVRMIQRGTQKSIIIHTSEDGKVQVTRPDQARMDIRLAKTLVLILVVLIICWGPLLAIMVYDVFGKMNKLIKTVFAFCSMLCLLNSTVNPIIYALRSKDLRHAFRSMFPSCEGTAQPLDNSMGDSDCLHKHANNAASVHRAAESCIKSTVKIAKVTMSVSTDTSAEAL
# Molecular target: Cannabinoid receptor 1 (Homo sapiens, UniProt P21554)
# Assay: Antagonist activity at human CB1 receptor expressed in CHO-K1 cells by intracellular Ca2+ mobilization assay in presence of CP55940
# Format: functional, cell-based
# Summary of the method: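 CHO-K1 cells co-expressing human CB1 and Gαq16; intracellular calcium flux read with fluorescent dye on a 96-well plate reader. Rightward shift of the CP55940 concentration-response curve gives Ke = [ligand]/(DR−1), DR being the CP55940 EC50 ratio with versus without test agent. Averages of 3–6 measurements.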
smiles,measurement,value
O=C(NC1CCN(c2ncnc3c2nc(-c2ccccc2Cl)n3-c2ccc(Cl)cc2)CC1)Oc1ccccc1,Ke,4 nM
